Values quoted from earlier work, collected in PMC9855333, “1-(Arylsulfonyl-isoindol-2-yl)piperazines as 5-HT6R Antagonists: Mechanochemical Synthesis, In Vitro Pharmacological Properties and Glioprotective Activity” (Biomolecules, 2022).

By UniProt entry, the sequences of proteins in these tests, tags left out.
UniProt P50406, whole entry: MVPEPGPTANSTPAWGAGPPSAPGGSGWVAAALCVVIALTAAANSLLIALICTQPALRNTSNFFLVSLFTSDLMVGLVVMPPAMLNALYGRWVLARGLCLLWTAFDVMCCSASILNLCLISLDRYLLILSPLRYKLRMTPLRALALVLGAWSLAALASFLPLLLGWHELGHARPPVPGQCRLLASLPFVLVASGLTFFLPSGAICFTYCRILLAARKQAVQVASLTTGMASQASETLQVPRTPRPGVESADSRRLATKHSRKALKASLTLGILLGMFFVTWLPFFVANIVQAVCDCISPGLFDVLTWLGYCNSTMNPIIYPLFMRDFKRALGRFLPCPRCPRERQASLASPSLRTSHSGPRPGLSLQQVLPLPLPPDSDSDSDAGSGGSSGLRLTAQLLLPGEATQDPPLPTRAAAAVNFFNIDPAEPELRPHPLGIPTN

Target: 5-HT6R (Homo sapiens, UniProt P50406)
Set-up: expressed in transfected cells; host or cells: NG108-15 (mouse neuroblastoma x rat glioma hybrid), transient co-transfection with CAMYEL, Lipofectamine 2000
Conditions: Figure 1; cited from earlier work

## O=S(=O)(c1cccc(Cl)c1)n1ccc2c(N[C@H]3CCNC3)nc3ccccc3c21 [CPPQ, (S)-1-[(3-chlorophenyl)sulfonyl]-4-(pyrrolidine-3-yl-amino)-1H-pyrrolo[3,2-c]quinoline]
  Functional profile at Gs: Neutral antagonist
